Measured values: patent US20060223879A1, “Non-steroidal farnesoid x receptor modulators” (priority 2002, published 2006)

The chains behind the UniProt entries cited, without tags or fusion partners.
UniProt Q96RI1, whole entry: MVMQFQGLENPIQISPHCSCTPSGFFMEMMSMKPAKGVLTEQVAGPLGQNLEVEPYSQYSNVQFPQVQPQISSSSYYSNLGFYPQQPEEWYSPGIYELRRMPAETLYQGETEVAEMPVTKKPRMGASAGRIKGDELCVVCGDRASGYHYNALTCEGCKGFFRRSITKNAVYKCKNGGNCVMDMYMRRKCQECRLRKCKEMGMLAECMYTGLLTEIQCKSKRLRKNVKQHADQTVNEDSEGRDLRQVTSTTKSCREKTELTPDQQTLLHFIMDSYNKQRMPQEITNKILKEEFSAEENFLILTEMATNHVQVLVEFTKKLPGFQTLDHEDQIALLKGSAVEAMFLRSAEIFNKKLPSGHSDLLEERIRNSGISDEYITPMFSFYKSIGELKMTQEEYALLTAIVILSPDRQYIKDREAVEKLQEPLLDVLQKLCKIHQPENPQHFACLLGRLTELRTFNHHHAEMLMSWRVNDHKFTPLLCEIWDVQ

Biological target: FXR (Homo sapiens, UniProt Q96RI1)
Assay: cell-based transcription assay, FXR responsive promoter linked to a luciferase reporter

COC(=O)/C=C/c1cccc(N(Cc2ccc(/C=C/c3c(F)cccc3F)cc2)C(=O)C(C)C)c1
FXR activation (in words): excellent activity
